Target: human CN, expressed in bacteria and purified (CnA in tandem with CnB, GST construct) (human, UniProt Q08209 1-521; P63098 1-170)
Test: cell-based or functional assay

B1: LxVPc1 peptide (synthetic peptide with the LxVP sequence of NFATc1) (peptide)
peptide: DQYLAVPQHPYQWAK
EC50 of the increase of CN phosphatase activity on pNPP: ~6.5 mM
